## Antibody variant affinities, Ab-14 light chain, assay B

The measurements come from Li et al. 2023 (doi:10.1038/s41467-023-39022-2) through the FLAb antibody collection.

Antigen: PDVDLGDISGINAS, a 14-residue peptide of the SARS-CoV-2 spike HR2 region.

The variants keep the heavy chain, the linker and the frameworks of Ab-14 (scFv order VH, the linker GGGGSGGGGSGGGGS, VL).
VH: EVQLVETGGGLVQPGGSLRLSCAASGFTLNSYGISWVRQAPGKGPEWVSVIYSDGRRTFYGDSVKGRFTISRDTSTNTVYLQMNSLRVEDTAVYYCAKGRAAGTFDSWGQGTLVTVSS
VL: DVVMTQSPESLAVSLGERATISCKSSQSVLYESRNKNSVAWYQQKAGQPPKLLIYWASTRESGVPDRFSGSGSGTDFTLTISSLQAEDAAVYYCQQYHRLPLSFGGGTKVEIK

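Phage display of a naive human antibody library on the peptide gave the parent. These sequences belong to a second round, designed from the earlier measurements on random variants of the parent. Several design methods are mixed in this list. The scFvs were displayed on barcoded MATa yeast, the peptide on MATalpha yeast. The frequency of each diploid, read from paired DNA barcodes, reflects how well the two displayed proteins bind. A regression on co-assayed BCL2-family reference pairs converts the normalised counts of each replicate to an apparent Kd. There are six technical replicates.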

Variants are written as CDR1, CDR2 and CDR3 of the light chain (limits as in the source). Parent: KSSQSVLYESRNKNSVA, WASTRES, QQYHRLPLS.
Affinities are written as log10 Kd with Kd in nM; a lower number is a better binder.
The mean shown is taken over the replicates in which the pair was detected.
A pair that was not seen in any replicate is written "no signal"; this usually means weak binding, but a binder can also be missed.
Empty control strains, which show no peptide, gave a signal in 4% of pairings with all light chain designs; the median was 2.64 and 95% of these signals were weaker than 1.59. No background was subtracted. The control count says in how many pairings with the empty strains this scFv gave a signal.
The range of this assay differs from that of the first round, and the authors advise against merging the two.
The authors' rule: three or more of the six replicates give a measured affinity, fewer mean a poor binder.

CDR-L1 | CDR-L2 | CDR-L3 | log10 Kd (nM), mean | replicates with signal | control signals
KLSQSVLYESRLKNSVA | NASTRMY | QQYHRLPLS | 0.48 | 6 of 6 | 0 of 18
KVSSFMRGLMMRKDSIA | DNETRNN | QQYDRLPLS | 0.56 | 6 of 6 | 0 of 18
KLSMTTEMELKNRNSVA | ELVTRMS | QQYNRLPLS | 0.58 | 6 of 6 | 0 of 18
KLSQSVLYESRHKNSVA | EASTRES | QQYHRLPLS | 0.13 | 6 of 6 | 0 of 18
KSSQSTLYESRNKNSVA | KASTRES | QQYHRLPLM | 0.33 | 6 of 6 | 0 of 18
KVSQSVQYESRNFNSVA | NASTRVS | QQYHRLPLS | -0.02 | 6 of 6 | 1 of 18
KLQQSELYESRNKNSVA | GASTRLS | QQYHRLPLS | -0.42 | 6 of 6 | 0 of 18
VLSDTIENQYDEADNIA | DKTETSK | QQYARLPLS | 1.50 | 6 of 6 | 0 of 18
KSSQPVLYESRNKNSVA | WASTRER | QQYHRLPLS | 1.89 | 1 of 6 | 0 of 18
RINIAGMTVDEHYSNVA | AQRLTSE | QQYFRLPLA | 2.06 | 5 of 6 | 1 of 18
KVQQSVLYESRNKNSVA | NASYRES | QQYHRLPLS | 0.12 | 6 of 6 | 1 of 18
HSNGNLVMGERNKNHVA | STDVRAS | QQYSRLPFT | 0.03 | 6 of 6 | 2 of 18
KCDQSVLYESRNKNSVA | NASTRES | QQYHRLPLS | 0.01 | 6 of 6 | 2 of 18
TISQSVMMTGLNRNSVA | QASERIE | QQYHRLPLS | 0.42 | 6 of 6 | 1 of 18
KSEQSVLYESRNKNSVA | WASERES | QQYHRLPLS | no signal | 0 of 6 | 0 of 18
KLEWSQLYWSRNCNSVA | NASTRES | QQYWRLPLS | 0.94 | 6 of 6 | 0 of 18
KMSQSVLYESRNSNAVA | QASQRMS | QQYHRLPLS | 0.62 | 6 of 6 | 1 of 18
KLEESVLYESRNKNSVA | NASTRES | QQYHRLPLS | -0.14 | 6 of 6 | 1 of 18
KISQMSTIESITHNSIA | QTSTRES | QQYDRLPLS | 0.62 | 6 of 6 | 2 of 18
KSEQSVLIESRNKNSVA | WADTRES | QQYHRLPLS | 2.24 | 5 of 6 | 1 of 18
HMSMITLGGMRHKNSVA | QMTTREN | QQYDHLPLS | 1.41 | 6 of 6 | 0 of 18
KSSQSVLYESRNKNHVA | GASTRES | QQYSRLPLS | 0.69 | 6 of 6 | 1 of 18
ALTSDLEVEQVNARNVA | NAHAVES | QQYQHLPLS | -0.07 | 6 of 6 | 1 of 18
KLSGSWLYESRVKNNVA | DAHQRES | QMYHRLPLS | 1.35 | 6 of 6 | 0 of 18
KLTMITGLEKVQGQNVA | EMETREK | QQYNRLPLS | 1.27 | 5 of 6 | 0 of 18
KSSQSVLYERRNKNSVA | WASTRES | GQYHRLPLS | no signal | 0 of 6 | 0 of 18
NLSIQNQPQNMSANNVA | QTESRCE | QQYAQLPLA | 1.58 | 6 of 6 | 2 of 18
KLSQSVLYGSRNKNSVA | EASQRES | QQYHRLPLS | -0.15 | 6 of 6 | 0 of 18
QFSMNLEIYGQEQWAVA | MGEMRTE | QQYHKLPLS | 1.57 | 2 of 6 | 0 of 18
KLRQSMLYESRNKNSVA | QASTRES | QQYHRLPLT | 0.26 | 6 of 6 | 0 of 18
KQQQSVGGMQRNKNSVA | EASTREM | QQYHRLPLS | 0.21 | 6 of 6 | 0 of 18
KLSQSELYESRNKNSVA | EASCRES | QQYHRLPLS | 1.07 | 6 of 6 | 1 of 18
KLDQGNLYESRNKNSVA | GASTRES | QQYHRLPLS | 0.84 | 6 of 6 | 1 of 18
TISQSAQNESHNKNSVA | DLSVRGS | QQYHRLPLS | 0.48 | 6 of 6 | 3 of 18
KLSQSVLYESRNANNVA | DASTRES | QQYHRLPLS | -0.49 | 6 of 6 | 1 of 18
KSSQSVLEESRNKHSVA | WASTRES | QQYHRFPLS | 2.28 | 5 of 6 | 1 of 18
HMSMLTLGGMRHMNSVA | QMTTREN | QQYDRLPLA | 1.73 | 6 of 6 | 1 of 18
KSSQSELCEDRNTNSVA | QASQRES | QQYHRLPLS | 1.06 | 6 of 6 | 0 of 18
MLSDLVKMGSRNENSVA | DNSTRGS | QQYDRLPLS | no signal | 0 of 6 | 0 of 18
MIEEGNAGEIKNSSNIA | SQDQKED | QQYQRLPLI | 1.83 | 6 of 6 | 1 of 18
KMSQSVLYESRNKNSVA | WASTRFS | QQYHRLPLS | 0.66 | 6 of 6 | 0 of 18
KLSQSDWMESRNPNNVA | HASTRES | QQYHRLPLS | -0.49 | 6 of 6 | 0 of 18
KLSMTHEMEHVNRNSVA | ELVTRMR | QQYNRLPLS | 0.99 | 6 of 6 | 1 of 18
KSSYSYLYESRNTNSVA | EASTRES | QQYHRLPLS | 0.29 | 6 of 6 | 2 of 18
KQSQSVLYESRNKNSVA | DASTRES | QQYQRLPLS | -0.50 | 6 of 6 | 1 of 18
MISDMGLHDSRMQNSVA | NNSTRES | QQYHRLPLS | 1.71 | 6 of 6 | 2 of 18
KLEQSVDYESRNKNSVA | NASTRMS | QQYHRLPLS | -0.11 | 6 of 6 | 3 of 18
FLSQSVLYESRNKNSVA | EASTRES | QQYHRLPLS | 0.51 | 6 of 6 | 1 of 18
KSSPSVLLESRNKNSVA | WASTRES | QQYHHLPLS | no signal | 0 of 6 | 0 of 18
QLSMITGHVSMIKNNVA | EMETRMN | QQYDRLPLS | 0.56 | 6 of 6 | 0 of 18
KSSQSVLEESRNKNSVA | GASTREI | QQYHRLPPS | 2.66 | 6 of 6 | 0 of 18

Again, the first 4 entries without any signal:

CDR-L1	CDR-L2	CDR-L3	log10 Kd (nM), mean	replicates with signal	control signals
KSEQSVLYESRNKNSVA	WASERES	QQYHRLPLS	no signal	0 of 6	0 of 18
KSSQSVLYERRNKNSVA	WASTRES	GQYHRLPLS	no signal	0 of 6	0 of 18
MLSDLVKMGSRNENSVA	DNSTRGS	QQYDRLPLS	no signal	0 of 6	0 of 18
KSSPSVLLESRNKNSVA	WASTRES	QQYHHLPLS	no signal	0 of 6	0 of 18